Data on one compound can be found in publication PMC8310277 (Viruses, 2021).

The subject of assay [1] is replication-competent SARS-CoV-2 viruses expressing mNeonGreen. Format: cell-based.
The test system of assay [2] is SARS-CoV-2 spike RBD - hACE2 interaction. The assay can be described thus: SARS-CoV-2 RBD and hACE2 binding assay. More on the design: species or system SARS-CoV-2 / human.

As to `CC[C@H](C)[C@@H]1NC(=O)[C@@H]2CSSC[C@@H]3NC(=O)[C@H](Cc4ccccc4)NC(=O)[C@H](C)NC(=O)[C@H](Cc4c[nH]c5ccccc45)NC(=O)[C@H](CC(C)C)NC(=O)[C@H](CCCNC(=N)N)NC(=O)CNC(=O)[C@H](CCC(N)=O)NC(=O)[C@H](Cc4ccc(O)cc4)NC(=O)[C@H]([C@@H](C)CC)NC(=O)[C@H](CSSC[C@H](NC(=O)[C@H](Cc4ccc(O)cc4)NC(=O)[C@@H](NC(=O)[C@H](C)N)CSSC[C@@H](C(=O)O)NC3=O)C(=O)N[C@@H](CCCNC(=N)N)C(=O)N[C@@H]([C@@H](C)CC)C(=O)N3CCC[C@H]3C(=O)N[C@@H](C)C(=O)N2)NC(=O)[C@H]([C@@H](C)O)NC(=O)CNC(=O)[C@H](Cc2ccc(O)cc2)NC(=O)[C@H](CCCNC(=N)N)NC(=O)[C@H](CCCNC(=N)N)NC(=O)[C@H](CCC(=O)O)NC(=O)CNC(=O)[C@H](C)NC1=O` [HNP1], the “inhibition of replication-competent SARS-CoV-2 infection (in words)” value in assay [1] is given as “suppressed viral infection in a dose-dependent manner”. Besides, the “effect on hACE2 - spike RBD interaction at high concentrations (in words)” value in assay [2] (16.7 and 50 μg/mL) is “slightly promoted the interaction”. Also, the “interference with interaction between spike RBD and hACE2 (in words)” value in assay [2] (biotinylated hACE2 pre-treated with defensin 37 °C 1 h, plate-bound RBD) is on record as “did not find that HNP1 interfered”.
